# According to patent publication US20250170265A1 (priority 2023, published 2025):
# Assay: Stability of diazonium compounds (NMR in D2O with acetonitrile internal standard)
# Format: physicochemical
substance,measurement,setting,value
tetrakis(benzene-4-diazonium)methane tetrafluoroborate [Compound 28],diazonium/IS ratio,1 hour,0.68
same,diazonium/IS ratio,2 hours,0.67
same,diazonium/IS ratio,6 hours,0.64
same,diazonium/IS ratio,24 hours,0.54
same,diazonium/IS ratio,T0 (immediately after sample preparation),0.68
